Here are results for 3 molecules from patent US20090209525A1, “ENABLING METHODS TO IDENTIFY ALLOSTERIC MODULATORS OF RECEPTOR ACTIVITY” (priority 2006, published 2009).

Protein sequences, listed by entry. Tags and fused reporters are not part of them.
UniProt P08482, whole entry W101A: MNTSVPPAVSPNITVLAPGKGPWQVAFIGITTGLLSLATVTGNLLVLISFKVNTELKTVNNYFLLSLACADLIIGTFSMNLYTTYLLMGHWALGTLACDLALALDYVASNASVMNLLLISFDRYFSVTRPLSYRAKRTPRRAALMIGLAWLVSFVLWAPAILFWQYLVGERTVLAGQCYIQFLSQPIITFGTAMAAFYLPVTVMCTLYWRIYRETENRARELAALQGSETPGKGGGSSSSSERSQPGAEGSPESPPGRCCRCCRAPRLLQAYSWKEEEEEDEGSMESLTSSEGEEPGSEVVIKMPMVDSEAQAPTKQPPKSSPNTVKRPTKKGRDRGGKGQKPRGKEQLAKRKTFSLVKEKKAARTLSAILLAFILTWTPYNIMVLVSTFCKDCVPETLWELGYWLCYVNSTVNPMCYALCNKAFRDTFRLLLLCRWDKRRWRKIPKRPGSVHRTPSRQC
UniProt P08482, whole entry Y381A: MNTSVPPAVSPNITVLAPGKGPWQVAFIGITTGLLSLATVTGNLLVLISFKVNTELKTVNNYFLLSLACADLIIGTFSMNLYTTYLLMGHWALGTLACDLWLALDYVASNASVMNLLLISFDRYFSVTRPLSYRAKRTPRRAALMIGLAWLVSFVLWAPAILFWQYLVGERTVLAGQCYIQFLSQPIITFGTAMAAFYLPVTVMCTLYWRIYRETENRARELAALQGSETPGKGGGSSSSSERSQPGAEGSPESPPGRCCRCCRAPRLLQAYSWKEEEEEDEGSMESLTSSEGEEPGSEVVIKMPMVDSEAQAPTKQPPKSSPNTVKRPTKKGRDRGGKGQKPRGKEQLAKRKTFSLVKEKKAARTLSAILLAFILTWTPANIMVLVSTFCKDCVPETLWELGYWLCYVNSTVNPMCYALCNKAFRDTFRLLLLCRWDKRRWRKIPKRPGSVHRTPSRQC
UniProt P08482, whole entry Y106A: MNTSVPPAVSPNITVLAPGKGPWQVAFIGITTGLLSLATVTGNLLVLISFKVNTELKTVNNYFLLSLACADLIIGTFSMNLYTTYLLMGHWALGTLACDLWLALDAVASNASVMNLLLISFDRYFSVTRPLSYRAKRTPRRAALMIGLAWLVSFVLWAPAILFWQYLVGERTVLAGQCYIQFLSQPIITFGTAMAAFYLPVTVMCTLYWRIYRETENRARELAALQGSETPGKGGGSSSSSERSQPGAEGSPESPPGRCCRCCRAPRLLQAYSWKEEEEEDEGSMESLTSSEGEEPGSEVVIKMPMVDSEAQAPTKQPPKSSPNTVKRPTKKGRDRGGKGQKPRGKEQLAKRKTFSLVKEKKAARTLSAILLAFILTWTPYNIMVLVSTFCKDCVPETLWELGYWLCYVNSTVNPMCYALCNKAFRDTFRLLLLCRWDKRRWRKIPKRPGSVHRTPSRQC
UniProt P08482, whole entry S109A: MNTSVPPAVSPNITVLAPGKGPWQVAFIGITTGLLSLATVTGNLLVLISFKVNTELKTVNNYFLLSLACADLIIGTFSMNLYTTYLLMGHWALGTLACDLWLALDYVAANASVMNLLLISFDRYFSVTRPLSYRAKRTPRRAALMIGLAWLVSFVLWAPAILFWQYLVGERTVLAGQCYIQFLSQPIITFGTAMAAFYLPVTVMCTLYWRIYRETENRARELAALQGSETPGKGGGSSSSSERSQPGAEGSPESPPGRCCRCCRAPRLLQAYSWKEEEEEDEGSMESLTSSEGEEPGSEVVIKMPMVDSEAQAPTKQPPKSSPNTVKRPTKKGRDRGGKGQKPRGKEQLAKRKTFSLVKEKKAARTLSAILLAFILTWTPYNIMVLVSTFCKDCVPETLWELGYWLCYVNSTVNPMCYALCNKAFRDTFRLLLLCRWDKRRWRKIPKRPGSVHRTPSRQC
UniProt P08482, whole entry L102A: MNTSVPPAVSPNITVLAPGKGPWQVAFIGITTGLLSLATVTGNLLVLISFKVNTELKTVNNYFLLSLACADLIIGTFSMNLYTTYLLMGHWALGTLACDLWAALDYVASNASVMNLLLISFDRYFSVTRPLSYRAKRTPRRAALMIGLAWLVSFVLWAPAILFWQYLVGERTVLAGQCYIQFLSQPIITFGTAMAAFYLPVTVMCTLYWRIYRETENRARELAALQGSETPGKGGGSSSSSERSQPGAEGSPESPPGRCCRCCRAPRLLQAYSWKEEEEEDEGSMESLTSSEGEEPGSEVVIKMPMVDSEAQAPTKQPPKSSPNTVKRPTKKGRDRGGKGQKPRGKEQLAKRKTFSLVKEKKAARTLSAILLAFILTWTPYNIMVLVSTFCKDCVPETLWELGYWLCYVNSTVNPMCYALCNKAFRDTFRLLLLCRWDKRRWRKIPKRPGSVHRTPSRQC
UniProt P08482, whole entry D105A: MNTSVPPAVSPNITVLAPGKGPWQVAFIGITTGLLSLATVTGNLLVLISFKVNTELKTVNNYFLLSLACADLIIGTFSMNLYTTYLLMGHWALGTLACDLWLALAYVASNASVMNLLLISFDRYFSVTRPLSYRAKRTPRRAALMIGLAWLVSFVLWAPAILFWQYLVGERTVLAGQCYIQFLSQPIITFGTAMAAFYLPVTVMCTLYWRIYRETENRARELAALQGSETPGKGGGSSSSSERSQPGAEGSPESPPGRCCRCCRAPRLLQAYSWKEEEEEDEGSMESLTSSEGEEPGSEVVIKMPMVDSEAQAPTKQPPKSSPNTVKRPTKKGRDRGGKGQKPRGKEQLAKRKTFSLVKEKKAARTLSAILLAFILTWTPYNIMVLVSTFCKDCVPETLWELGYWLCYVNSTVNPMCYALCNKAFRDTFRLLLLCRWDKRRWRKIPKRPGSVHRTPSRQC

Experiment [1] addresses T1, rat M1 wild-type receptors (Rattus norvegicus, UniProt P08482). Briefly: R-SAT functional assay, wild-type receptor.
In experiment [2] the target is T2, rat M1 W101A receptor (Rattus norvegicus, UniProt P08482, W101A). Put plainly: R-SAT functional assay, W101A mutant.
The target of a further experiment is rat M1 Y381A receptor (Rattus norvegicus, UniProt P08482, Y381A). Briefly: R-SAT functional assay, Y381A mutant. The following applies: pEC50, Table 4.
The target in experiment [3] is T3, rat M1 Y106A receptor (Rattus norvegicus, UniProt P08482, Y106A). Briefly: R-SAT functional assay, Y106A mutant. Format: cell-based. Set-up: expressed in transfected cells.
For experiment [4], the target named is T4, rat M1 S109A receptor (Rattus norvegicus, UniProt P08482, S109A).
T4 construct: expressed in transfected cells
Briefly: R-SAT functional assay, S109A mutant. The experiment is classed as cell-based.

Experiment [5] addresses T4, rat M1 S109A receptor. Briefly: Phosphatidyl inositol hydrolysis assay, S109A. The settings on record: Table 6, PI hydrolysis, relative to wild-type response to that ligand. Format: cell-based.
In experiment [6] the target is T2, rat M1 W101A receptor. Briefly: Phosphatidyl inositol hydrolysis assay, W101A. The following applies: Table 6, PI hydrolysis, relative to wild-type response to that ligand (clozapine: title says fold-response).
For the next experiment, the target named is T5, rat M1 L102A receptor (Rattus norvegicus, UniProt P08482, L102A).
T5 construct: expressed in transfected cells; host or cells: NIH-3T3
Briefly: R-SAT functional assay, L102A mutant. Format: cell-based.

Experiment [7] concerns the target T3, rat M1 Y106A receptor. Briefly: Phosphatidyl inositol hydrolysis assay, Y106A. The settings on record: Table 6, PI hydrolysis, relative to wild-type response to that ligand (clozapine: title says fold-response).
Experiment [8] has as its target T1, rat M1 wild-type receptors. Put plainly: Phosphatidyl inositol hydrolysis assay, wild-type. The experiment is classed as cell-based. Set-up: expressed in transfected cells. The settings on record: PI hydrolysis.
The next experiment deals with T6, rat M1 D105A receptor (Rattus norvegicus, UniProt P08482, D105A).
T6 construct: expressed in transfected cells; host or cells: NIH-3T3
Briefly: R-SAT functional assay, D105A mutant. Format: cell-based.

Where [9] appears, read: read-out: basal activity decreased by atropine, % of maximal response to carbachol.

Values joined by “and” are separate entries in the source; they are usually repeats but may differ in a detail not shown here. Identical values can stand only once. Where only a bound is given, the exact number is not on record here.

As for `CN1[C@@H]2CC[C@H]1C[C@@H](OC(=O)C(CO)c1ccccc1)C2` (stereo partly drawn) [Atropine], the Emax at 0.5 µM in experiment [1] (setting [9]) amounted to 7%; on rat M1 W101A receptor [2] (setting [9]), 6%.

As a reminder, the EC50 is the concentration that produces a half-maximal response. A high value points to a less potent agent. On to `CCCCCCOc1nsnc1C1=CCCN(C)C1` [Xanomeline], for which the EC50 is 50.1 nM in [1] (pEC50, Table 4, M1 wild type); 126 nM at rat M1 W101A receptor [2] (pEC50, Table 4, M1 W101A); 398 nM on rat M1 Y381A receptor.

Take `C[N+](C)(C)CCOC(N)=O.[Cl-]` [Carbachol, carbamylcholine]: the “% Eff” value in [1] is 84% and 97%. Besides, the “Eff (%)” value in experiment [1] is 100 ± 0% and 100 ± 9%; at rat M1 Y106A receptor [3] it was “no resp”; at rat M1 S109A receptor [4], >65 ± — %; on rat M1 W101A receptor [2] it was >80 ± — %; on rat M1 S109A receptor [5] it was >100 ± — %; on rat M1 W101A receptor [6], >75 ± — %. The “Eff (%)” value at rat M1 L102A receptor is given as >30 ± — %; on rat M1 Y106A receptor [7] it was “no resp”; in [8] (Table 5, maximum response relative to carbachol), 100 ± 0%; in experiment [8] (Table 6, M1 WT, maximum response, normalized) it was 100 ± 4%; at rat M1 D105A receptor it was “no resp”. For the same molecule, in experiment [8] (wild-type, typical value), the “maximum response over baseline” value is “carbachol, which was typically 3.3-fold over baseline”.
